# Membrane permeability of cyclic peptides

Collected by the curators of CycPeptMPDB (Li et al. 2023) from Townsend et al. 2020, doi:10.26434/chemrxiv.13335941.v1.

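Lipid, pH, incubation time, direction and concentration are not recorded in the data file. The list need not hold all peptides of the study. Entries at the database's floor value (log10 P of -10) are not listed.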

PAMPA measures passive passage through an artificial lipid membrane.
Values are log10 P with P in cm/s, so -5 is more permeable than -7.

| SMILES | PAMPA (log10 cm/s) |
|---|---|
| CC(C)C[C@@H]1C(=O)N(C)[C@@H](CC(C)C)C(=O)N2CCC[C@@H]2C(=O)N(C)[C@@H](CC(C)C)C(=O)N[C@@H](Cc2ccccc2)C(=O)N2CCC[C@H]2C(=O)N[C@H](C)C(=O)N1C | -5.56 |
| CC(C)C[C@@H]1NC(=O)[C@H](CC(C)C)N(C)C(=O)[C@@H](C)NC(=O)[C@H](Cc2ccccc2)NC(=O)[C@H](CC(C)C)N(C)C(=O)[C@H]2CCCN2C1=O | -4.87 |
| CC(C)C[C@@H]1C(=O)N(Cc2ccccc2)CC(=O)N2CCC[C@H]2C(=O)N(C)[C@@H](CC(C)C)C(=O)N[C@@H](Cc2ccccc2)C(=O)N[C@@H](Cc2ccccc2)CC(=O)N1C | -5.43 |
| CC(C)C[C@H]1NC(=O)[C@H](CC(C)C)N(C)C(=O)[C@@H](C)NC(=O)[C@H]2CCCN2C(=O)[C@H](Cc2ccccc2)NC(=O)[C@H](CC(C)C)N(C)C(=O)[C@H]2CCCN2C1=O | -5.79 |
| CC(C)C[C@@H]1NC(=O)[C@H]2CCCN2C(=O)[C@@H](CC(C)C)NC(=O)CN(Cc2ccccc2)C(=O)C[C@H](Cc2ccccc2)NC(=O)[C@H]2CCCN2C(=O)[C@H](Cc2ccccc2)NC1=O | -6.17 |
| CC(C)C[C@@H]1C(=O)N(C)[C@H](CC(C)C)C(=O)N2CCC[C@H]2C(=O)N(C)[C@H](CC(C)C)C(=O)N[C@@H](Cc2ccccc2)C(=O)N[C@@H](Cc2ccccc2)CC(=O)N1C | -5.16 |
| CC(C)C[C@H]1NC(=O)[C@H](C)N(C)C(=O)[C@H](Cc2ccccc2)NC(=O)[C@H](CC(C)C)N(C)C(=O)[C@H]2CCCN2C(=O)CN(Cc2ccccc2)C1=O | -5.11 |
| CCCN1CC(=O)N(C)[C@@H](CC(C)C)C(=O)N(C)[C@@H](CC(C)C)C(=O)N2CCC[C@H]2C(=O)N(Cc2ccccc2)CC(=O)N[C@@H](Cc2ccccc2)C(=O)N2CCC[C@H]2C1=O | -5.39 |
| CCCN1CC(=O)N(C)[C@H](CC(C)C)C(=O)N[C@H](CC(C)C)C(=O)N2CCC[C@@H]2C(=O)N[C@H](CC(C)C)C(=O)N[C@@H](Cc2ccccc2)C(=O)N2CCC[C@H]2C1=O | -6.26 |
| CC(C)C[C@@H]1NC(=O)[C@H](CC(C)C)N(C)C(=O)[C@@H](C)N(C)C(=O)[C@@H]2CCCN2C(=O)[C@H](Cc2ccccc2)NC(=O)[C@H](CC(C)C)N(C)C(=O)[C@@H]2CCCN2C1=O | -5.38 |
| CC(C)C[C@@H]1C(=O)N[C@H](CC(C)C)C(=O)N2CCC[C@H]2C(=O)N(Cc2ccccc2)CC(=O)N[C@@H](Cc2ccccc2)C(=O)N[C@@H](C)C(=O)N1C | -5.22 |
| CCCN1CC(=O)N(C)[C@@H](CC(C)C)C(=O)N[C@@H](Cc2ccccc2)CC(=O)N2CCC[C@H]2C(=O)N(C)[C@H](CC(C)C)C(=O)N[C@@H](Cc2ccccc2)C(=O)N2CCC[C@H]2C1=O | -5.67 |
| CC(C)C[C@@H]1NC(=O)C[C@H](Cc2ccccc2)NC(=O)[C@H](Cc2ccccc2)NC(=O)[C@H](CC(C)C)NC(=O)[C@@H]2CCCN2C(=O)[C@H](CC(C)C)NC1=O | -6.47 |
| CC(C)C[C@@H]1NC(=O)[C@@H]2CCCN2C(=O)[C@@H](CC(C)C)N(C)C(=O)[C@H](CC(C)C)N(C)C(=O)[C@@H](C)N(C)C(=O)[C@H](Cc2ccccc2)NC1=O | -4.81 |
| CC(C)C[C@H]1NC(=O)[C@@H]2CCCN2C(=O)[C@@H](CC(C)C)NC(=O)[C@H](CC(C)C)N(C)C(=O)[C@H](C)NC(=O)[C@H](Cc2ccccc2)NC1=O | -6.30 |
| CC(C)C[C@@H]1NC(=O)[C@H](C)N(C)C(=O)[C@@H]2CCCN2C(=O)[C@H](Cc2ccccc2)NC(=O)CN(Cc2ccccc2)C(=O)[C@@H]2CCCN2C(=O)CN(Cc2ccccc2)C1=O | -6.13 |
| CCCN1CC(=O)N(C)[C@H](CC(C)C)C(=O)N(C)[C@@H](CC(C)C)C(=O)N2CCC[C@@H]2C(=O)N[C@H](CC(C)C)C(=O)N[C@@H](Cc2ccccc2)C1=O | -5.04 |
| CC(C)C[C@@H]1C(=O)N2CCC[C@@H]2C(=O)N(C)[C@@H](CC(C)C)C(=O)N[C@@H](Cc2ccccc2)C(=O)N2CCC[C@@H]2C(=O)N(C)[C@@H](C)C(=O)N(C)[C@H](CC(C)C)C(=O)N1C | -4.87 |
| CC(C)C[C@@H]1NC(=O)[C@H](C)N(C)C(=O)[C@@H]2CCCN2C(=O)[C@H](Cc2ccccc2)NC(=O)[C@@H](CC(C)C)NC(=O)[C@@H]2CCCN2C(=O)C[C@H](Cc2ccccc2)NC1=O | -6.20 |
| CC(C)C[C@@H]1NC(=O)[C@@H](C)NC(=O)[C@H](Cc2ccccc2)NC(=O)[C@H](CC(C)C)N(C)C(=O)[C@H]2CCCN2C(=O)CN(Cc2ccccc2)C1=O | -5.04 |

Extract of 3 entries:

| SMILES | PAMPA (log10 cm/s) |
|---|---|
| CC(C)C[C@@H]1NC(=O)[C@@H](C)NC(=O)[C@H](Cc2ccccc2)NC(=O)[C@H](CC(C)C)N(C)C(=O)[C@H]2CCCN2C(=O)CN(Cc2ccccc2)C1=O | -5.04 |
| CC(C)C[C@@H]1NC(=O)[C@H]2CCCN2C(=O)[C@@H](CC(C)C)NC(=O)CN(Cc2ccccc2)C(=O)C[C@H](Cc2ccccc2)NC(=O)[C@H]2CCCN2C(=O)[C@H](Cc2ccccc2)NC1=O | -6.17 |
| CC(C)C[C@@H]1NC(=O)[C@H](CC(C)C)N(C)C(=O)[C@@H](C)N(C)C(=O)[C@@H]2CCCN2C(=O)[C@H](Cc2ccccc2)NC(=O)[C@H](CC(C)C)N(C)C(=O)[C@@H]2CCCN2C1=O | -5.38 |